Patent publication US10195311B2, “Local delivery of drugs from self assembled coatings” (Interface Biologics, Inc., priority 2009, dated 2019)

Conditions: rat, in vivo, 15 mg

Dansyl Oligofluoro [Compound 3]
T1/2(e), T1/2(Total): 15.7 h
